Measured values from paper PMC7734798 (ACS Medicinal Chemistry Letters, 2020).

Tested on: Oli-Neu cells (immortalized mouse oligodendrocyte precursor cells)
Settings: 24 h; for toxicity against Oli-Neu cells (in words): 1–10 μM, MTT

Structure (SMILES) | cell survival/death in Oli-Neu cells, % mean ± SE of controls (MTT) (0.5 μM) | cell survival/death in Oli-Neu cells, % mean ± SE of controls (MTT) (1 μM) | cell survival/death in Oli-Neu cells, % mean ± SE of controls (MTT) (5 μM) | cell survival/death in Oli-Neu cells, % mean ± SE of controls (MTT) (10 μM) | toxicity against Oli-Neu cells (in words)
CC/C=C\C/C=C\C/C=C\CCCCCCCC(=O)O [ALA, α-linolenic acid, reference compound] | 78 ± 5 ^b % | 75 ± 9% | 71 ± 8 ^b % | 68 ± 6 ^b % | 
CCCC(CCC)C(=O)O [VPA, valproic acid, reference compound] | 75 ± 7 ^b % |  |  |  | 
CC/C=C\C/C=C\C/C=C\CCCCCCCC(=O)NCCNC(=O)C(CCC)CCC [compound 1] | 89 ± 9% | 95 ± 8% | 88 ± 5 ^c % |  | no toxicity
CC/C=C\C/C=C\C/C=C\CCCCCCCC(=O)NCCOC(=O)C(CCC)CCC [compound 2] | 110 ± 4% | 115 ± 7 ^b % | 105 ± 8% | 101 ± 8% | no toxicity

Where two headings read alike, the source gives them in different places.
